The values below come from article PMC5384220, “Highly selective inhibition of histone demethylases by de novo macrocyclic peptides” (Nature Communications, 2017).

One data set has as its target T1, KDM4A (Homo sapiens, UniProt O75164).
T1 construct: KDM4A 1-359 E.coli; Hexa-His (N); made in house; host or cells: E. coli
T1 sequence (O75164 1-359): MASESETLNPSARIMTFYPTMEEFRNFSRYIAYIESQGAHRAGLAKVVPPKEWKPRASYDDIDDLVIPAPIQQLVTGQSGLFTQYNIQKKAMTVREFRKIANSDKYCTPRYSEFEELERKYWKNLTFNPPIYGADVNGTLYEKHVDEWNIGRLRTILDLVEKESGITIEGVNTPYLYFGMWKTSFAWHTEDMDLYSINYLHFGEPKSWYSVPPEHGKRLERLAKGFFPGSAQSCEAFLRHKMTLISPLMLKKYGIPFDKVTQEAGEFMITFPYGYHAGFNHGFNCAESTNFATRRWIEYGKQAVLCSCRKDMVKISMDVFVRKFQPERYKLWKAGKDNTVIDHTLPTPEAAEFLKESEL
Nature of the data set: AlphaScreen demethylase activity assay, KDM4A. It is filed as biochemical. Here is the method:
(§1) IC50 values for KDM2–6 were measured using an AlphaScreen assay as described. The appropriate KDM (5 μl) was pre-incubated with an inhibitor (0.1 μl in DMSO) or DMSO for 15 min before the addition of 5 μl mixture of biotinylated peptide substrates, 2OG, ferrous ammonium sulfate (1–10 μM final) and ascorbate (100 μM final) to initiate the demethylation reaction. The reaction was quenched with 5 μl of 30 mM EDTA at predetermined reaction times for each enzyme (initial rate). Demethylated product was detected by addition of 5 μl of AlphaScreen donor and acceptor beads (AlphaScreen General IgG Detection Kit, 0.02 mg ml^−1 final each) pre-incubated with antibody. The plates were read after 1 h incubation in a BMG Labtech Pherastar FS plate reader. Data were normalized to a no enzyme control and IC50 values were calculated using nonlinear regression curve fits using GraphPad Prism. Assay buffer (50 mM HEPES pH 7.5, BSA (0.1% w/v) and Tween-20 (0.01% v/v)) was used throughout, except for dilution of stock ferrous ammonium sulfate solutions where water was used. The enzyme, substrate and antibody concentrations used are described in Supplementary Table 3. A fluorescence-based LSD1 inhibitor screening assay kit (Cayman, 700120) was used for KDM1/LSD1 assay. Assays for prolyl hydroxylase domain 2 and factor inhibiting HIF using matrix-assisted laser desorption/ionization–time of flight MS were performed as previously described. Prism 5.0 (GraphPad) was used to generate and to fit dose–response curves. IC50 values were determined by plotting percentage inhibition versus compound concentration relative to positive (vehicle) and negative (no enzyme) controls, using normalized dose–response (variable slope) fit. The reported values are the mean of multiple experiments (n≥3). The formaldehyde dehydrogenase coupled KDM assay was used to determine the mode of inhibition, using 0.5 μM His-KDM4A1–359. Prism 5.0 (GraphPad) was used to fit in mix-mode inhibition, to determine the kinetic parameters. Binding constants for CPs and H3(1–15)K9me3 were measured using biolayer interferometry (OctetRed 384, ForteBio) in buffer (50 mM HEPES (pH 7.5), 150 mM NaCl, 10 μM ammonium iron(II) sulphate). His-KDM4A1–359-Bio (70 nM) was immobilized onto super streptavidin biosensor and subjected to different peptide concentrations in buffer. Data analysis was performed using ForteBio Data Aalysis (v6.4).
(§2) Construct Expression [E] / nM [2OG] / µM [Fe(II)] / µM Peptide / nM Peptide sequence Antibody Source […]
(§3) Supplementary Table 3. AlphaScreen assay parameters for 2OG oxygenases used for this study. The table was dapted from 10. Assays were performed at 2OG concentration near the 2OG Km values determined experimentally.11 All enzymes were expressed and purified as described.10-12
On the technique in general: Alpha assays give light when donor and acceptor beads are brought close together.

The target in another data set is T2, KDM4C (Homo sapiens, UniProt Q9H3R0).
T2 construct: KDM4C 1-366 E.coli; made in house; host or cells: E. coli
T2 sequence (Q9H3R0 1-366): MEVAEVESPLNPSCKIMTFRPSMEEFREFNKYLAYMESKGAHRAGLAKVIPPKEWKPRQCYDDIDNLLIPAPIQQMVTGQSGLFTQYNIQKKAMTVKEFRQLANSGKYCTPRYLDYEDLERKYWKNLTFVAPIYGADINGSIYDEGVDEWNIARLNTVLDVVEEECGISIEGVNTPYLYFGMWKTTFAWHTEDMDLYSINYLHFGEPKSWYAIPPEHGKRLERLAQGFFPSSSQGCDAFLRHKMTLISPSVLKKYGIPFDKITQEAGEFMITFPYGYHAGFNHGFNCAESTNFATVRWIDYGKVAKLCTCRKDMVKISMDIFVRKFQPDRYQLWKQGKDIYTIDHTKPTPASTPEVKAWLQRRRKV
Nature of the data set: AlphaScreen demethylase activity assay, KDM4C. It counts as biochemical. As to conditions: read-out: IC50 KDM4C. Here is the method:
as §1, §2, §3

Another data set deals with FLAG-KDM4A in HeLa cells. As to conditions: HeLa overexpressing FLAG-KDM4A, 3 µM.
[1] abbreviates: read-out: IC50 KDM4A, KDM4A 1-359.

Like-named read-outs stand apart in the source and are kept apart here.

By IC50 is commonly meant the concentration needed to halve the response being measured. Consider (meDY)VYNTRSGWRWYTC [^DY1me^DY], for which the IC50 was found to be 264 nM on KDM4A (setting [1]) and 192 nM at KDM4C.
On to DY(meV)YNTRSGWRWYTC [V2meV], for which the IC50 amounted to 37 nM at KDM4A (setting [1]) and 60 nM on KDM4C.
Consider DYVYNT(Cit)SGWRWYZC [R6Cit], for which the concentration for half-maximal inhibition (IC50) was 283 nM at KDM4A (setting [1]); over 2400 nM on KDM4A (read-out: IC50 KDM4A, KDM4A 1-359, listed as peptide 7); 695 nM on KDM4C.
Turning to DYVYNT(KAc)SGWRWYZC [R6AcK], the half-maximal inhibitory concentration (IC50) on KDM4A (setting [1]) was 2400 nM; at KDM4A (read-out: IC50 KDM4A, KDM4A 1-359, listed as peptide 6), over 2400 nM; at KDM4C, 5900 nM.
Regarding DYVYNTASGWRWYTC [R6A], the 50% inhibitory concentration (IC50) is 2700 nM at KDM4A (setting [1]); over 2400 nM at KDM4A (read-out: IC50 KDM4A, KDM4A 1-359, listed as peptide 4); 3900 nM on KDM4C.
With DYVYNTFSGWRWYZC [R6F], the half-maximal inhibitory concentration (IC50) at KDM4A (setting [1]) was 5500 nM; at KDM4A (read-out: IC50 KDM4A, KDM4A 1-359, listed as peptide 5), over 2400 nM; at KDM4C, over 10000 nM.
On to DYVYNTKSGWRWYZC [R6K], for which the half-maximal inhibitory concentration (IC50) was 24 nM at KDM4A (setting [1]) and 112 nM at KDM4C.
Take DYVYNTRSDAWRWYTC [G8^DA]: the half-maximal inhibitory concentration (IC50) was found to be 10 nM at KDM4A (setting [1]) and 29 nM at KDM4C.
As for DYVYNTRSGWRWY(meT)C [T13meT], the IC50 came to 48 nM at KDM4A (setting [1]) and 53 nM on KDM4C.
In the case of DYVYNTRSGWRWYT(meC) [C14meC], the IC50 turned out to be 9 nM on KDM4A (setting [1]) and 23 nM on KDM4C.
In the same order, the values of DYVYNTRSGWRWYTC [Linear CP2] are 172 nM and 144 nM.
Take DYVYNTRSGWRWYTC-BRRRRRRRRR [CP2(polyR)]: the “Viability of transfected cells” value with FLAG-KDM4A in HeLa cells is recorded as “No viable transfected cells”. For the same substance, the “Concentration at which cytotoxicity with reduction in cell numbers was observed” value with HeLa cells was over 3000 nM. The figures for the 50% inhibitory concentration (IC50) at KDM4A (setting [1]) and at KDM4C were 1.8 nM and 0.8 nM, respectively.
In the case of DYVYNTRSGWRWYZC [T13Z], the 50% inhibitory concentration (IC50) on KDM4A (setting [1]) amounted to 110 nM; on KDM4C, 60 nM.
With LYVYNTRSGWRWYTC [^DY1^LY], the half-maximal inhibitory concentration (IC50) worked out at 66 nM at KDM4A (setting [1]) and 78 nM on KDM4C.
